Source: PubChem BioAssay AID2595 (National Center for Advancing Translational Sciences (NCATS), 2010)
This is a selection; strong and weak results do not stand in their true shares. Inconclusive results are not listed. Activity calls are given as the source filed them. The call rests on the fitted dose curve; in most records, active means well fitted inhibition curve with a large enough effect; inconclusive means small, poorly fitted or top-dose-only effect, or effect the other way; inactive means flat fitted curve, though single readings scatter.

Sequences of proteins named here, by UniProt entry; tags and fusion partners are left off. A change or cut given only in a name is not applied to a line headed by its entry.
UniProt P04062: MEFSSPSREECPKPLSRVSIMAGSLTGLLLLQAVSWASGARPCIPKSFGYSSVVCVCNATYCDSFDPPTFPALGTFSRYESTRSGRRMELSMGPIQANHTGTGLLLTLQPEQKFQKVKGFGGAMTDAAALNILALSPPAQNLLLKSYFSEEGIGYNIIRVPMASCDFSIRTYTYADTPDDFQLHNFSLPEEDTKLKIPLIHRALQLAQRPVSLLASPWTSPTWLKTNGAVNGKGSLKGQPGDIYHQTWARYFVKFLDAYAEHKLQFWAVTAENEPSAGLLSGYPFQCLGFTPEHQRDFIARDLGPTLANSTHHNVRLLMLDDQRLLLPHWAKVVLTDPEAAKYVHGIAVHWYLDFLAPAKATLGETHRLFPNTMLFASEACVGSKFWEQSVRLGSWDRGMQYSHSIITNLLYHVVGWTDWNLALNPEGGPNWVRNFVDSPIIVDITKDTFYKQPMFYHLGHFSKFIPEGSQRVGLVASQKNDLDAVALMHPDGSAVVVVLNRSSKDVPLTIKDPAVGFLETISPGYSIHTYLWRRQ

Biological target: Lysosomal acid glucosylceramidase (Homo sapiens) (UniProt P04062)
Assay: qHTS Assay for Inhibitors and Activators of N370S glucocerebrosidase as a Potential Chaperone Treatment of Gaucher Disease: Purified Non-mutant Glucocerebrosidase
Details: purified wildtype GC, 4MU-beta-glucoside fluorescence, 40 min
Excerpt: NIH Chemical Genomics Center [NCGC] NIH Molecular Libraries Probe Production Centers Network [MLPCN] MLPCN Grant: MH086442-01 Assay Submitter (PI): Wei Zheng Glucocerebrosidase (GC) catalyzes the hydrolysis of beta-glucocerebroside to glucose and ceramide in lysosomes. Mutations in the glucocerebrosidase gene result in Gaucher disease, an autosomal recessive lysosomal storage disorder. Many of the mutations encountered in patients with Gaucher disease are missense alterations that may cause misfolding, decreased stability and/or mistrafficking of this lysosomal protein. […] These inhibitors include iminosugar analogs and three non-iminosugar inhibitors identified from a previous HTS of 62,000 compounds with the wild type recombinant enzyme. However, the enhancement of enzyme activity by the chaperone action of an enzyme inhibitor must be balanced against the direct inhibition of the enzyme. An enzyme activator could also function as a chaperone by binding to the enzyme and helping to correct its misfolding and mistrafficking. While activators for GC have not yet been identified, they may have better therapeutic potential than inhibitors. Therefore the discovery and development of chemical activators may provide a new strategy for the chaperone therapy. We have optimized a new assay using N370S mutant GC derived from the spleen of a Gaucher patient. […]
NCGC Assay Protocol Summary: This is a fluorogenic enzyme assay with 4-methylumbelliferyl-beta-D-glucopyranoside as the substrate and purified wildtype glucocerebrosidase as the enzyme preparation. Upon the hydrolysis of this fluorogenic substrate, the resulting product, […] which can be detected by a standard fluorescence plate reader. […] The AC50 values were determined from concentration-response data modeled with the standard Hill equation. […] (5) Add 2 ul stop solution (1M NaOH and 1M Glycine mixture, pH 10) (6) Detect the assay plate in a ViewLux plate reader (PerkinElmer) with Ex=365 nm and Em=440nm. […]

Potency, active:
CCc1nnc(NC(=O)c2ccc(NS(=O)(=O)c3ccccc3)cc2)s1 224 nM
COc1ccc(Cl)cc1Nc1nc(NCCO)nc(N2CCCC2)n1 398 nM
Cc1cc(N2CCOCC2)nc2ccc(NC(=O)C3CCCCC3)cc12 79.4 nM
